Reference: publication PMC3142620 (Chemistry & biology, 2011)

Target: Raf-1 (Homo sapiens, UniProt P04049)

CN(C)CCOc1ccc(-c2nc(-c3ccncc3)c(-c3ccc4c(c3)CC/C4=N\O)[nH]2)cc1 [SB590885]
Raf-1 probe-labeling after live cell treatment: significant increases
